Measurements from ChEMBL document CHEMBL1155235, “Synthesis and pharmacological evaluation of sulfamide-based analogues of anandamide” (Eur J Med Chem, 2009).

The chains behind the UniProt entries cited, without tags or fusion partners.
UniProt P20272, whole entry: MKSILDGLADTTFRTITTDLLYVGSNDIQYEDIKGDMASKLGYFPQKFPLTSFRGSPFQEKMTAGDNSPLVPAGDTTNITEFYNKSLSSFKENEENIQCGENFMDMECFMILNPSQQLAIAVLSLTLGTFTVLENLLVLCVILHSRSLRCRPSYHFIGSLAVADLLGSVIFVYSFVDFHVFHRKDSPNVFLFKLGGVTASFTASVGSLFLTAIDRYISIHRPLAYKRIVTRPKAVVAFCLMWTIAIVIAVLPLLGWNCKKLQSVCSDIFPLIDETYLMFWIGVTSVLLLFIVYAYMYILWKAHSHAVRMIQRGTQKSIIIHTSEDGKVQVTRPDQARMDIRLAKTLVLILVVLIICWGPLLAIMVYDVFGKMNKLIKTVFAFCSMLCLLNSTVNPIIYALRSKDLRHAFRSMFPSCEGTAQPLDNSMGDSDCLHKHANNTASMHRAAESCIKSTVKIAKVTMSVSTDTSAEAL

Molecular target: Cannabinoid receptor 1 (Rattus norvegicus, UniProt P20272)
Assay: Displacement of [3H]SR141716A from CB1 receptor in rat cerebellar membrane after 90 mins by scintillation counting
Type: cell membranes, Cerebellum
Outline: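 Cerebellar membranes incubated in triplicate with radioligand ([3H]SR141716A 0.4 nM; [3H]WIN-55212-2 1 nM) and compound at 10^-5 to 10^-12 M final. Compounds were dissolved in DMSO, then diluted in 20 mM HEPES pH 7.4 with 1 mM MgCl2 and 0.5% fatty-acid-free BSA. Incubation was 30 °C for 90 min, stopped with ice-cold buffer and filtered on GF/C. Ki was derived by Cheng–Prusoff using fixed, independently measured Kd.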

Question: For `CCCCC/C=C\C/C=C\C/C=C\C/C=C\CCCC(=O)NCCO` [ANANDAMIDE], which Ki is on record?
Answer: 132 nM
